Substitutions are numbered along the chain they refer to.
How the values were obtained:
GlyT2 S640C mutant = biological target: T1, GlyT2 S640C mutant (Rattus norvegicus, UniProt P58295, S640C); experiment: [3H]glycine transport by GlyT2 mutant in COS7 cells; format: cell-based
T1 construct: expressed in transfected cells; host or cells: COS7
T1 sequence (P58295 1-799 S640C): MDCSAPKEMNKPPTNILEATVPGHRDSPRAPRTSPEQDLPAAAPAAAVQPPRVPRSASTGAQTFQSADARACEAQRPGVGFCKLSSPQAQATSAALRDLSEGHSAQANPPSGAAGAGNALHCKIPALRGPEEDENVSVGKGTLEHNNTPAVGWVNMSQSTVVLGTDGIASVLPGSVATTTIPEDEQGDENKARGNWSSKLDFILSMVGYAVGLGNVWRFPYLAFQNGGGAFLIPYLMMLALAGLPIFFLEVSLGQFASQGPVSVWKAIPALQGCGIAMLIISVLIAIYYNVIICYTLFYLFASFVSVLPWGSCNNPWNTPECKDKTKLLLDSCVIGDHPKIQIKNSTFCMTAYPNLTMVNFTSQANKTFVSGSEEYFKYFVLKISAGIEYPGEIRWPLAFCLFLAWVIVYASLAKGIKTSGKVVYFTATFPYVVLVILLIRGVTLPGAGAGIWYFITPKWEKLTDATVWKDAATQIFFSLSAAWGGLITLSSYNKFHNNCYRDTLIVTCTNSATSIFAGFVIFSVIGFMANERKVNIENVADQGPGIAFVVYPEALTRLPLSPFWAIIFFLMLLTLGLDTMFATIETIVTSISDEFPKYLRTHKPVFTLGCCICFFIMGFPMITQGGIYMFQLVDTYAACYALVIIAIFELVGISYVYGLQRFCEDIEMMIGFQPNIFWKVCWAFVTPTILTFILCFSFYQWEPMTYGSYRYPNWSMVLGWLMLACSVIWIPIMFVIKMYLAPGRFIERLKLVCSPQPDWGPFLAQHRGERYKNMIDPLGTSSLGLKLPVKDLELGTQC

GlyT2 I285F mutant = biological target: T2, GlyT2 I285F mutant (Rattus norvegicus, UniProt P58295, I285F); experiment: as above; format: cell-based
T2 construct: expressed in transfected cells; host or cells: COS7
T2 sequence (P58295 1-799 I285F): T1 sequence (P58295 1-799 S640C) with I285F, C640S

## NCC(=O)O [Gly, glycine]
GlyT2 S640C mutant
  EC50: 111 ± 2 µM
GlyT2 I285F mutant
  EC50: 603 ± 86 µM

From article PMC8691691 (ACS Chemical Neuroscience, 2021)
